In patent US20060094649A1, “Hla-a1,-a2,-a3,-a24,-b7, and-b44 tumor associated antigen peptides and compositions” (priority 2002, published 2006):
pIC50: −log10 of the molar value. Like-named read-outs stand apart in the source and are kept apart here.

How the values were obtained:
[1] = test system: HLA-A3 supertype molecules; assay: HLA-A3 supertype cross-binding (A*0301, A*1101, A*3101, A*3301, A*6801); details: for number of A3 supertype alleles bound: of 5 alleles, affinity ≦500 nM
HLA-B*4002 = HLA-B*4002 (Homo sapiens, UniProt P01889, A65T/A93T/A95T/D138N/D201E/D98Y/E176V/E204Q/E69K/K202T/N87E/Q56L/Q94N/R180L/S48T/Y33H/Y91S); assay: Class I peptide-binding assay, HLA-B*4002 (B44 supertype); details: dash cells, read-out: B*4002
[2] = MAGE2-derived B44 peptides, Table 29

CSCC[C@H](NC(=O)[C@@H](N)CO)C(=O)N[C@@H](CC(C)C)C(=O)N[C@@H](CCC(=O)O)C(=O)N[C@H](C(=O)N[C@@H](Cc1ccccc1)C(=O)N[C@@H](CCC(=O)O)C(=O)NCC(=O)N[C@@H](CCCNC(=N)N)C(=O)O)C(C)C [compound 89]
Number of A3 alleles crossbound ([1]; Table 16c, Mage2/3-derived): 3

CSCC[C@H](NC(=O)[C@@H](N)CO)C(=O)N[C@@H](CC(C)C)C(=O)N[C@@H](CCC(=O)O)C(=O)N[C@H](C(=O)N[C@@H](Cc1ccccc1)C(=O)N[C@@H](CCC(=O)O)C(=O)NCC(=O)N[C@@H](CCCCN)C(=O)O)C(C)C [compound 90]
Number of A3 alleles crossbound ([1]; Table 16c, Mage2/3-derived): 4

CC(C)[C@H](NC(=O)[C@@H](N)CO)C(=O)N[C@@H](Cc1ccccc1)C(=O)N[C@@H](C)C(=O)N[C@@H](Cc1c[nH]cn1)C(=O)N1CCC[C@H]1C(=O)N[C@@H](CCCNC(=N)N)C(=O)N[C@@H](CCCCN)C(=O)O [compound 91]
Number of A3 alleles crossbound ([1]; Table 16c, Mage2/3-derived): 3

CC[C@H](C)[C@H](NC(=O)[C@@H](NC(=O)[C@H](C)N)C(C)C)C(=O)N[C@@H](CCC(=O)O)C(=O)N[C@H](C(=O)N[C@@H](CO)C(=O)N[C@@H](Cc1ccc(O)cc1)C(=O)N[C@H](C(=O)N[C@@H](CCCCN)C(=O)O)C(C)C)[C@@H](C)O [compound 93]
Number of A3 alleles crossbound ([1]; Table 16c, Mage2/3-derived): 3

CC[C@H](C)[C@H](NC(=O)[C@@H](NC(=O)[C@H](C)N)C(C)C)C(=O)N[C@@H](CCC(=O)O)C(=O)N[C@H](C(=O)N[C@@H](CO)C(=O)N[C@@H](Cc1ccc(O)cc1)C(=O)N[C@H](C(=O)N[C@@H](CCCNC(=N)N)C(=O)O)C(C)C)[C@@H](C)O [compound 94]
Number of A3 alleles crossbound ([1]; Table 16c, Mage2/3-derived): 3

CC[C@H](C)[C@H](N)C(=O)N[C@H](C(=O)N[C@@H](Cc1ccc(O)cc1)C(=O)N1CCC[C@H]1C(=O)N1CCC[C@H]1C(=O)N[C@@H](CC(C)C)C(=O)N[C@@H](Cc1c[nH]cn1)C(=O)N[C@@H](CCC(=O)O)C(=O)N[C@@H](CCCNC(=N)N)C(=O)O)C(C)C [compound 96]
Number of A3 alleles crossbound ([1]; Table 16c, Mage2/3-derived): 5

CC[C@H](C)[C@H](N)C(=O)N[C@H](C(=O)N[C@@H](Cc1ccc(O)cc1)C(=O)N1CCC[C@H]1C(=O)N1CCC[C@H]1C(=O)N[C@@H](CC(C)C)C(=O)N[C@@H](Cc1c[nH]cn1)C(=O)N[C@@H](CCC(=O)O)C(=O)N[C@@H](CCCCN)C(=O)O)C(C)C [compound 97]
Number of A3 alleles crossbound ([1]; Table 16c, Mage2/3-derived): 3

CC[C@H](C)[C@H](NC(=O)[C@@H](NC(=O)[C@@H]1CCCN1C(=O)[C@H](Cc1ccccc1)NC(=O)[C@H](Cc1ccccc1)NC(=O)[C@@H](N)Cc1ccc(O)cc1)C(C)C)C(=O)N[C@@H](Cc1ccccc1)C(=O)N[C@@H](CO)C(=O)N[C@@H](CCCCN)C(=O)O [compound 98]
Number of A3 alleles crossbound ([1]; Table 16c, Mage2/3-derived): 3

CC[C@H](C)[C@H](NC(=O)[C@H](CCC(N)=O)NC(=O)[C@H](CC(N)=O)NC(=O)[C@H](CC(=O)O)NC(=O)CNC(=O)[C@H](CC(C)C)NC(=O)[C@@H](N)CC(C)C)C(=O)N[C@@H](CCSC)C(=O)N1CCC[C@H]1C(=O)N[C@@H](CCCCN)C(=O)O [compound 101]
Number of A3 alleles crossbound ([1]; Table 16c, Mage2/3-derived): 3

CC(C)C[C@H](NC(=O)[C@@H](NC(=O)[C@@H](N)CO)C(C)C)C(=O)N[C@@H](CCC(=O)O)C(=O)N[C@H](C(=O)N[C@@H](Cc1ccccc1)C(=O)N[C@@H](CCC(=O)O)C(=O)NCC(=O)N[C@@H](CCCNC(=N)N)C(=O)O)C(C)C [compound 102]
Number of A3 alleles crossbound ([1]; Table 16c, Mage2/3-derived): 4

CC(C)C[C@H](NC(=O)[C@@H](NC(=O)[C@@H](N)CO)C(C)C)C(=O)N[C@@H](CCC(=O)O)C(=O)N[C@H](C(=O)N[C@@H](Cc1ccccc1)C(=O)N[C@@H](CCC(=O)O)C(=O)NCC(=O)N[C@@H](CCCCN)C(=O)O)C(C)C [compound 103]
Number of A3 alleles crossbound ([1]; Table 16c, Mage2/3-derived): 5

CC(C)[C@H](NC(=O)[C@@H](N)CCCCN)C(=O)N[C@@H](Cc1ccc(O)cc1)C(=O)N[C@@H](CCC(N)=O)C(=O)NCC(=O)N[C@@H](CO)C(=O)N[C@@H](Cc1ccc(O)cc1)C(=O)NCC(=O)N[C@@H](Cc1ccccc1)C(=O)N[C@@H](CCCNC(=N)N)C(=O)O [compound 105]
Number of A3 alleles crossbound ([1]; Table 16d, p53-derived): 4

CC(C)[C@H](NC(=O)[C@@H](N)CCCCN)C(=O)N[C@@H](Cc1ccc(O)cc1)C(=O)N[C@@H](CCC(N)=O)C(=O)NCC(=O)N[C@@H](CO)C(=O)N[C@@H](Cc1ccc(O)cc1)C(=O)NCC(=O)N[C@@H](Cc1ccccc1)C(=O)N[C@@H](CCCCN)C(=O)O [compound 106]
Number of A3 alleles crossbound ([1]; Table 16d, p53-derived): 4

CC[C@H](C)[C@H](NC(=O)[C@H](C)NC(=O)[C@H](CCSC)NC(=O)[C@H](C)NC(=O)[C@H](CCCNC(=N)N)NC(=O)[C@@H](NC(=O)[C@H](CCCNC(=N)N)NC(=O)[C@@H](NC(=O)CN)C(C)C)C(C)C)C(=O)N[C@@H](Cc1ccc(O)cc1)C(=O)N[C@@H](CCCCN)C(=O)O [compound 112]
Number of A3 alleles crossbound ([1]; Table 16d, p53-derived): 3

CC[C@H](C)[C@H](NC(=O)[C@H](C)NC(=O)[C@H](CCSC)NC(=O)[C@H](C)NC(=O)[C@H](CCCNC(=N)N)NC(=O)[C@@H](NC(=O)[C@@H](N)CCCNC(=N)N)C(C)C)C(=O)N[C@@H](Cc1ccc(O)cc1)C(=O)N[C@@H](CCCNC(=N)N)C(=O)O [compound 114]
Number of A3 alleles crossbound ([1]; Table 16d, p53-derived): 3

CSCC[C@H](NC(=O)CNC(=O)CNC(=O)[C@H](CCSC)NC(=O)[C@H](CS)NC(=O)[C@H](CO)NC(=O)[C@@H](N)CO)C(=O)N[C@@H](CC(N)=O)C(=O)N[C@@H](CCCNC(=N)N)C(=O)O [compound 117]
Number of A3 alleles crossbound ([1]; Table 16d, p53-derived): 1

CC[C@H](NC(=O)[C@@H](NC(=O)[C@@H](N)CO)C(C)C)C(=O)N[C@@H](CCSC)C(=O)NCC(=O)NCC(=O)N[C@@H](CCSC)C(=O)N[C@@H](CC(N)=O)C(=O)N[C@@H](CCCNC(=N)N)C(=O)O [compound 119]
Number of A3 alleles crossbound ([1]; Table 16d, p53-derived): 4

CC[C@H](NC(=O)[C@@H](NC(=O)[C@@H](N)CO)C(C)C)C(=O)N[C@@H](CCSC)C(=O)NCC(=O)NCC(=O)N[C@@H](CCSC)C(=O)N[C@@H](CC(N)=O)C(=O)N[C@@H](CCCCN)C(=O)O [compound 120]
Number of A3 alleles crossbound ([1]; Table 16d, p53-derived): 3

CC[C@H](NC(=O)[C@@H](NC(=O)[C@@H](N)CO)C(C)C)C(=O)N[C@@H](CCSC)C(=O)NCC(=O)NCC(=O)N[C@@H](CCSC)C(=O)N[C@@H](CC(N)=O)C(=O)N[C@@H](CCCNC(=N)N)C(=O)N[C@@H](CCCCN)C(=O)O [compound 123]
Number of A3 alleles crossbound ([1]; Table 16d, p53-derived): 3

CSCC[C@H](NC(=O)[C@H](CC(C)C)NC(=O)[C@H](CCCCN)NC(=O)[C@H](CCCCN)NC(=O)[C@H](Cc1c[nH]cn1)NC(=O)[C@H](CCCNC(=N)N)NC(=O)[C@H](CO)NC(=O)[C@@H](NC(=O)[C@@H](N)CO)C(C)C)C(=O)N[C@@H](Cc1ccccc1)C(=O)N[C@@H](CCCCN)C(=O)O [compound 127]
Number of A3 alleles crossbound ([1]; Table 16d, p53-derived): 3

CSCC[C@H](NC(=O)[C@H](CC(C)C)NC(=O)[C@H](CCCCN)NC(=O)[C@H](CCCCN)NC(=O)[C@H](Cc1c[nH]cn1)NC(=O)[C@H](CCCNC(=N)N)NC(=O)[C@H](CO)NC(=O)[C@@H](NC(=O)[C@@H](N)CO)C(C)C)C(=O)N[C@@H](Cc1ccccc1)C(=O)N[C@@H](CCCNC(=N)N)C(=O)O [compound 128]
Number of A3 alleles crossbound ([1]; Table 16d, p53-derived): 3

N=C(N)NCCC[C@H](NC(=O)[C@H](CCC(=O)O)NC(=O)[C@@H](N)Cc1c[nH]cn1)C(=O)N[C@@H](CS)C(=O)N[C@@H](CO)C(=O)N[C@@H](CC(=O)O)C(=O)N[C@@H](CO)C(=O)N[C@@H](CC(=O)O)C(=O)NCC(=O)O [compound 614]
pIC50 (HLA-B*4002; p53-derived B44 peptides, Table 28): < 5.00

CC[C@H](C)[C@H](NC(=O)[C@H](CCCCN)NC(=O)[C@H](CCC(=O)O)NC(=O)[C@@H](N)CCC(=O)O)C(=O)N[C@@H](Cc1c[nH]c2ccccc12)C(=O)N[C@@H](CCC(=O)O)C(=O)N[C@@H](CCC(=O)O)C(=O)N[C@@H](CC(C)C)C(=O)N[C@@H](CO)C(=O)N[C@@H](CCSC)C(=O)N[C@@H](CC(C)C)C(=O)O [compound 702]
pIC50 (HLA-B*4002; [2]): < 5.00

C[C@H](NC(=O)[C@@H](NC(=O)[C@H](CCC(N)=O)NC(=O)[C@H](CCC(N)=O)NC(=O)[C@H](CCC(=O)O)NC(=O)[C@@H](N)CCC(=O)O)[C@@H](C)O)C(=O)N[C@@H](CO)C(=O)N[C@@H](CO)C(=O)N[C@@H](CO)C(=O)N[C@@H](CO)C(=O)N[C@H](C(=O)O)[C@@H](C)O [compound 706]
pIC50 (HLA-B*4002; [2]): < 5.00

CSCC[C@H](NC(=O)[C@@H](N)CCCCN)C(=O)N1CCC[C@H]1C(=O)N[C@@H](CS)C(=O)N[C@@H](CCC(N)=O)C(=O)N[C@@H](CC(C)C)C(=O)N[C@@H](C)C(=O)N[C@@H](CCCCN)C(=O)O [p53.132]
number of A3 supertype alleles bound [1]: 3

CEA.419: CEA-derived A3 supertype wildtype peptide (Table 16a) (TISPSYTYYR)
number of additional A3 supertype alleles bound ([1]; besides A*1101): three

MAGE2.277: MAGE2-derived A3 supertype wildtype peptide (Table 16c) (ALIETSYVK)
number of A3 supertype alleles bound [1]: 3

MAGE3.189: MAGE3-derived A3 supertype wildtype peptide (Table 16c) (LLGDNQIMPK)
number of A3 supertype alleles bound [1]: 3

p53.124: p53-derived A3 supertype wildtype peptide (Table 16d) (CTYSPALNK)
number of A3 supertype alleles bound [1]: 3

p53.240B3K9: p53-derived A3 supertype analog, B at position 3 and K at position 9
change in A3 supertype binding, analog vs wildtype (in words) [1]: improved binding to one of the two primary alleles

p53.273: p53-derived A3 supertype wildtype 8-mer (Table 16d) (RVCACPGR)
number of A3 supertype alleles bound [1]: 4
